In article PMC9492542, “Brain-restricted mTOR inhibition with binary pharmacology” (Nature, 2022):
pKd, pKi: −log10 of the molar value. Values joined by “and” are separate entries in the source; they are usually repeats but may differ in a detail not shown here. Identical values can stand only once. Each block holds one molecule with its values, some of them ahead of it.

By UniProt entry, the sequences of proteins in these tests, tags left out.
UniProt P62942, whole entry: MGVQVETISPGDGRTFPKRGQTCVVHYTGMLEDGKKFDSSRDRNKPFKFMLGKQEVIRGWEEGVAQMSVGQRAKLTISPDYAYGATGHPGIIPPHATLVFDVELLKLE

Tests used:
FKBP12 = FKBP12 (Homo sapiens, UniProt P62942); assay: Competition fluorescence polarization assay with FITC-rapamycin tracer; conditions: for pKd: Kd (FKBP12), recombinant FKBP12, Extended Data Fig. 2
476 purified kinases = target: T1, 476 purified kinases (Homo sapiens, UniProt P29320); conditions: 10 nM compound
T1 sequence (P29320 21-983): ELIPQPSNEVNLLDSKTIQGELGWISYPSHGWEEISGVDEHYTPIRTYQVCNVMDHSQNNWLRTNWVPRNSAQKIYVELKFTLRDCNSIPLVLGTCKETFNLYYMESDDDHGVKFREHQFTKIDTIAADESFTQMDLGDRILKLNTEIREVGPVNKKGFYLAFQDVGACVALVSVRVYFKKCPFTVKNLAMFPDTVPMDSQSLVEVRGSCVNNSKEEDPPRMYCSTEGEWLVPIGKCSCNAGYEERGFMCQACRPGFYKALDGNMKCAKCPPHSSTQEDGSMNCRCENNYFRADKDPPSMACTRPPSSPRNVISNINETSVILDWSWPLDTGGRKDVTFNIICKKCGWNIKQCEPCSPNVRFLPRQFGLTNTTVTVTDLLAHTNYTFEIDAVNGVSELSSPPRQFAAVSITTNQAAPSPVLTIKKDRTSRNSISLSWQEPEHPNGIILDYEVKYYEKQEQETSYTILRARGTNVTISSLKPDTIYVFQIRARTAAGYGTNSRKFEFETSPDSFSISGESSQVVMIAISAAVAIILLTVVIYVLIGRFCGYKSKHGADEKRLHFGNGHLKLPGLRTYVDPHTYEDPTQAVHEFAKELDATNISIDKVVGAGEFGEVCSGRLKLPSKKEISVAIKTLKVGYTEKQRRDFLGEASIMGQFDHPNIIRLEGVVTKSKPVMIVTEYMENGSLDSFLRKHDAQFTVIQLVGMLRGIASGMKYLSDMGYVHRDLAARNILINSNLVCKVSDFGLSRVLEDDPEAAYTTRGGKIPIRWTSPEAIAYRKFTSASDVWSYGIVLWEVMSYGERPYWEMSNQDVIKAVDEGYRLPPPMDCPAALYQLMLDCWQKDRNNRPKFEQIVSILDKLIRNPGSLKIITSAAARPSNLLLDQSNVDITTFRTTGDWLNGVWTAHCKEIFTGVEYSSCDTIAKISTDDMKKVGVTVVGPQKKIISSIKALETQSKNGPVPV

human PBMCs = assay: Proliferation of anti-CD3/anti-CD28 stimulated PBMCs (120 h); format: cell-based; design: unit not given here; conditions: +10 μM RapaBlock

pKd (FKBP12): 7.85
SMILES: CCC(C)(C)C(=O)C(=O)N1CCCC[C@H]1C(=O)O[C@H](CCc1ccc(OC)c(OC)c1)c1cccc(NC(=O)[C@H](C)N)c1 [Compound 01-059]

SMILES: Cc1nc(Nc2ncc(C(=O)Nc3c(C)cccc3Cl)s2)cc(N2CCN(CCO)CC2)n1 [Dasatinib]
EPHA3 (LanthaScreen Binding) (476 purified kinases): 102

SMILES: CO[C@H]1C[C@@H]2CC[C@@H](C)[C@@](O)(O2)C(=O)C(=O)N2CCCC[C@H]2C(=O)O[C@H]([C@H](C)C[C@@H]2CC[C@@H](O)[C@H](OC)C2)CC(=O)[C@H](C)/C=C(\C)[C@@H](O)[C@@H](OC)C(=O)[C@H](C)C[C@H](C)/C=C/C=C/C=C/1C [Rapamycin]
PBMC cell proliferation (human PBMCs; 0.005081 nM Rapamycin): 101.1 and 101.4 | PBMC cell proliferation (human PBMCs; 0.015242 nM Rapamycin): 108.2 and 104.6 | PBMC cell proliferation (human PBMCs; 0.045725 nM Rapamycin): 102.4 and 107.7 | PBMC cell proliferation (human PBMCs; 0.137174 nM Rapamycin): 110.4 and 105.5 | PBMC cell proliferation (human PBMCs; 0.411523 nM Rapamycin): 111.8 and 104.3 | PBMC cell proliferation (human PBMCs; 1.23457 nM Rapamycin): 114.6 and 108.6 and 104.2 | PBMC cell proliferation (human PBMCs; 3.7037 nM Rapamycin): 106.2

pKi (FKBP12; FKBP12 Ki, Fig. 2d, fluorescein-labelled rapamycin tracer): 7.60 | pKd (FKBP12): 7.64
SMILES: CCC(C)(C)C(=O)C(=O)N1CCCC[C@H]1C(=O)O[C@H](CCc1ccc(OC)c(OC)c1)c1cccc(N)c1 [SLF]
